Test results from US20080070867A1, “2-Imidazolone and 2-Imidazolidinone Heterocyclic Inhibitors of Tyrosine Phosphatases” (Metabasis Therapeutics, Inc., priority 2005, published 2008).

Chains of the proteins cited; added tags and fusions are not shown. Residues count along the entry.
UniProt P18031, 1-321 limits assumed: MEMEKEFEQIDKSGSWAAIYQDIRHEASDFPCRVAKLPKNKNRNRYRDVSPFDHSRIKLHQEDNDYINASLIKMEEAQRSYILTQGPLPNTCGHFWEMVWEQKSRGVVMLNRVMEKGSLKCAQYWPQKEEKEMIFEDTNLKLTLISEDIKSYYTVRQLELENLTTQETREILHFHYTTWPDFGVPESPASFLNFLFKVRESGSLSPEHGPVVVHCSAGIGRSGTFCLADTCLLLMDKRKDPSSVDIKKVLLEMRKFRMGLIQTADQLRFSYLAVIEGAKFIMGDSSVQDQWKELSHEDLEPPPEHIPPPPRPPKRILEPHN

Target: Human recombinant PTP-1B (Homo sapiens, UniProt P18031)
Experiment: Assay for PTP-1B Activity (pNPP substrate)
Conditions: read-out: Activity Code (IC50 range); human recombinant PTP-1B (1-321) GST fusion, 2 mM pNPP, pH 7.4, 30° C., 20 min
From the text: The activity of the compounds as modulators of protein tyrosine phosphatase, including PTP-1B, may be measured in standard assays (see, e.g., Examples 41 and 42). Briefly, the assay described herein employs human recombinant PTP-1B and a pNPP substrate in a rescue assay.
Assay for PTP-1B Activity
Enzyme: Human recombinant PTP-1B, containing amino acids 1-321, fused to GST enzyme (glutathione S-transferase) purified by affinity chromatography (Huyer et al, 1997, J. Biol. Chem., 272, 843-852).
pNPP: p-Nitrophenyl Phosphate (Calbiochem)
Assay Buffer: 50 mM HEPES (pH 7.4), 100 mM NaCl, 2 mM EDTA, 3 mM DTT
(5×) pNPP substrate: 10 mM pNPP in assay buffer
Enzyme: 1 mg/ml PTP1B (1-321), dilute 1:200 in assay buffer
Assay buffer: 50 mM HEPES (pH 7.4), 100 mM NaCl, 2 mM EDTA, 3 mM DTT
Enzyme dilution buffer: 50 mM HEPES (pH 7.4), 100 mM NaCl, 2 mM EDTA, 3 mM DTT
Substrate 198 mM p-Nitrophenyl Phosphate (pNPP) store at 4° C.
The assay was carried out at 30° C. in 96 well plates. The reaction mixture in 60 ul contained 50 mM HEPES (pH 7.4), 100 mM NaCl, 2 mM EDTA, 3 mM DTT, and 2 mM p-Nitrophenyl Phosphate (pNPP). 5 ul of the test compound (inhibitor) dissolved in DMSO or DMSO alone for control was added to each well and the plate was mixed for 2 min. […] The phosphatase activity was detected by using Victor II plate reader (Wallac) with absorbance detection at 405 nm. […]

Compound: O=C(O)c1ccc(-c2cn(-c3ccccc3)c(=O)n2Cc2ccc(C(F)(F)P(=O)(O)O)c(Br)c2)cc1
- IC50: 250 to 2500 nM
